# Literature values, collected in PMC6587507, “Comparison of the metabolism of 10 chemicals in human and pig skin explants” (Journal of Applied Toxicology, 2018).
# Conditions: ref Chemspider (www.chemspider.com); cited from earlier work
structure (smiles),measurement,value
COc1cc(C=O)ccc1O [Vanillin],LogP,1.21
